Screening results deposited in PubChem BioAssay by National Center for Advancing Translational Sciences (NCATS).
TDP1 block: blocks human tyrosyl-DNA phosphodiesterase 1; Q9NUW8; recombinant TDP1, AlphaScreen DNA substrate cleavage; Potency, µM (top dose mostly 130 µM), without a hit: at the top dose activity change, negative = inhibition, hits mostly inhibitors; 350,000 compounds, 0.28% hits; AID 485290; note: potency is the fitted concentration of half-maximal effect; % is set by controls: 0 for no effect and ±100 for the full control effect; nearly all actives have a fitted effect of over 40% in size
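Signal: AlphaScreen proximity between streptavidin donor and anti-FITC acceptor beads on intact substrate. Reaction: Tdp1 1 nM, substrate 15 nM final, 5 min RT after 15 min compound preincubation.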
miR-21 FLuc: raises the signal of a miR-21 reporter | HeLa miR-21 FLuc reporter, luciferase, 48 h | Potency, µM (highest dose often 38.3 µM), without a hit: at the top dose reporter change, positive = more light | 340,000 tested, under 10 active; active = well fitted rising curve with a large enough effect; inconclusive = small, poorly fitted or top-dose-only effect; inactive = no such curve, though single readings can be large or run the other way;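 note: % of control where 0% means no effect; miR-21 action dims this reporter so a rising signal means less miR-21 action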
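HeLa miR-21-FLuc reporter line, endogenous miR-21; 2000 cells/well in DMEM/10% FBS; compound titration up to ~40uM final, 48 h, 37 degree Celsius; luciferase detection reagent, 15 min lysis, CCD luminescence.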
DT40 TDP1 no CPT: qHTS for Inhibitors of human tyrosyl-DNA phosphodiesterase 1 (TDP1): qHTS in cells in absence of CPT; DT40 Tdp1-/- hTDP1 cells, no CPT, ATP luminescence, 48 h; Potency, µM (titrated, usually from 46.2 µM), inactives show at the highest dose activity change, negative = growth inhibition, actives largely listed as inhibitors; 420,000 compounds, 15% hits; AID 686978, 2013; note: potency is the fitted concentration of half-maximal effect; % is set by controls: 0 for no effect and ±100 for the full control effect; nearly all actives have a fitted effect of over 55% in size
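No-CPT arm: Tdp1-/-;hTDP1 DT40 cells (400/well) plus compounds, incubated ≥48 hr at 37 °C. Readout CellTiter-Glo luminescence.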
TDP1 cell CPT: DT40-hTDP1 cell growth loss with CPT. chicken DT40 Tdp1-/-;hTDP1 cells + 20 nM CPT, ATP luminescence, 48 h. Potency, µM (highest dose often 46.2 µM), inactives show top-dose activity change, negative = growth inhibition, actives largely listed as inhibitors. 420,000 compounds, 12% hits; note: potency is the fitted concentration of half-maximal effect; % is set by controls: 0 for no effect and ±100 for the full control effect; nearly all actives have a fitted effect of over 55% in size
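Cell growth measured by CellTiter-Glo luminescence after a minimum 48 h, 37 C compound exposure with 20 nM CPT in Tdp1-knockout DT40 cells stably expressing hTDP1, seeded 400/well; qHTS titration format.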
uPA generation: inhibitors of cell surface uPA generation; 330,000 compounds, 0.31% hits; Potency, µM (doses to about 38.3 µM), for inactives: at the top dose activity change, negative = inhibition, usual class: inhibitors; cell surface uPA generation assay, qHTS; active = well fitted inhibition curve with a large enough effect; inconclusive = small, poorly fitted or top-dose-only effect; inactive = no such curve, though single readings can be large or run the other way; tested in mouse RAW 264.7 cells; note: potency is the fitted concentration of half-maximal effect; % is set by controls: 0 for no effect and ±100 for the full control effect; nearly all actives have a fitted effect of over 55% in size
Starred values were filed as active, the others as inactive; u = inconclusive; x = not tested or not shown. Compounds with a hit are over-represented: about 16% of the library has one in this group of screens. Unless noted, calls come from the whole dose curve; as a rule, active = well fitted curve in the direction sought with a large enough effect; inconclusive = small, poorly fitted or top-dose-only effect, or another doubt; inactive = no such curve, though single readings can be large; an effect the other way counts as inactive or inconclusive.

nr	SMILES	TDP1 block	miR-21 FLuc	DT40 TDP1 no CPT
1	CCCCCCSc1ccc([C@@H]2[C@H]3C(=O)N(CC)C(=O)[C@H]3[C@]3(C(=O)OC)CCCCN23)cc1OC	0.0%	x	u
2	CCCSc1ccc([C@@H]2[C@@H]3C(=O)N(CC)C(=O)[C@@H]3[C@]3(C(=O)OC)CCCCN23)cc1OC	3.1%	x	23.1µM*
3	CCCSc1ccc([C@@H]2[C@@H]3C(=O)N(C)C(=O)[C@@H]3[C@]3(C(=O)OC)CCCN23)cc1OC	0.1%	x	u
4	Cc1cc(C(C)(C)C)oc1C(=O)OCC(=O)NC1CCCCC1	-2.5%	-0.3%	u
5	CCN1C(=O)[C@@H]2[C@@H](c3ccc(SC4CCCCC4)cc3)N3CCCC[C@@]3(C(=O)OC)[C@@H]2C1=O	1.2%	x	u
6	CCN1C(=O)[C@H]2[C@@H](c3ccc(SC4CCCCC4)c(OC)c3)N3CCCC[C@@]3(C(=O)OC)[C@H]2C1=O	0.1%	x	23.1µM*
7	CCOC(=O)C(CC)n1cnc2c(nnn2-c2cccc(OC)c2)c1=O (stereo not given)	x	-10.7%	-12.0%
8	CCOC(=O)c1cc(C(=O)OCC)c2ccccn2c1=O	-1.1%	-8.6%	18.4µM*

nr	TDP1 cell CPT	uPA generation
1	20.6µM*	23.5%
2	16.4µM*	2.1%
3	18.4µM*	2.0%
4	u	u
5	u	14.7%
6	u	-3.0%
7	-1.9%	0.9%
8	u	-6.7%

New compounds follow:
nr	SMILES	TDP1 block	miR-21 FLuc	DT40 TDP1 no CPT
9	CCn1c(=NC(=O)c2cccc(N3C(=O)CCC3=O)c2)sc2c(OC)ccc(OC)c21	x	-0.4%	18.4µM*
10	CCn1c(=NC(=O)c2ccc3c(c2)OCCO3)sc2c(C)ccc(OC)c21	2.7%	-4.5%	23.1µM*
11	CCn1c(=NC(=O)C2COc3ccccc3O2)sc2c(OC)ccc(OC)c21 (stereo not given)	4.2%	-1.6%	14.6µM*
12	CCOCCn1c(=NC(=O)c2ccc3c(c2)OCCO3)sc2cc(OCC)ccc21	0.0%	-5.3%	14.6µM*
13	COC(=O)[C@@H]1C[C@H]2CC[C@H](O)C[C@H]2N1Cc1ccc(C)s1	3.3%	4.8%	7.4%
14	COc1ccccc1CNC(=O)C1CCN(S(=O)(=O)c2cccc3cccnc23)CC1	4.9%	-3.5%	-19.5%
15	NC(=O)c1cc(N2C(=O)C=CC2=O)ccc1Cl	8.8%	19.4%	16.4µM*
16	CCN(CC)c1ccc(NS(=O)(=O)c2ccc3c(c2)oc(=O)n3C)c(C)c1	4.9%	20.7%	u

nr	TDP1 cell CPT	uPA generation
9	-25.5%	-3.1%
10	u	x
11	u	0.6%
12	u	x
13	-13.1%	9.1%
14	-23.9%	8.7%
15	13µM*	-9.0%
16	25.9µM*	5.2%

Other entries.
nr	SMILES	TDP1 block	miR-21 FLuc	DT40 TDP1 no CPT
17	COc1ccc(N(C(=O)Cc2cccs2)C2C=CS(=O)(=O)C2)cc1 (stereo not given)	-3.6%	5.6%	0.1%
18	O=C(Cc1cccs1)N(c1ccc(Br)cc1)C1C=CS(=O)(=O)C1 (stereo not given)	4.7%	15.2%	u
19	Cc1cc(C)c2sc(N(Cc3cccnc3)C(=O)CCOc3ccccc3)nc2c1	2.6%	-0.8%	u
20	O=C(CCOc1ccccc1)N(Cc1cccnc1)c1nc2c(F)cc(F)cc2s1	7.8%	-8.3%	25.9µM*
21	CC(=O)N(Cc1cccnc1)c1nc2ccc(F)cc2s1	2.6%	-37.9%	-7.3%
22	CCN(CC)CCN(C(=O)CCOc1ccccc1)c1nc2c(F)cc(F)cc2s1	-2.3%	-3.0%	18.4µM*
23	O=C(CCS(=O)(=O)c1ccccc1)N(Cc1cccnc1)c1nc2ccc(F)cc2s1	0.0%	-2.0%	5.8µM*
24	CCCOc1ccc(C(=O)N(Cc2ccco2)Cc2ccco2)cc1	4.7%	5.3%	u

nr	TDP1 cell CPT	uPA generation
17	-12.3%	2.1%
18	16.4µM*	0.0%
19	18.4µM*	x
20	18.4µM*	x
21	-8.8%	x
22	u	-3.6%
23	3.26µM*	x
24	u	x

Following part.
nr	SMILES	TDP1 block	miR-21 FLuc	DT40 TDP1 no CPT
25	CCCOc1ccc(C(=O)N(Cc2ccc(Cl)cc2)Cc2ccco2)cc1	-4.9%	1.0%	u
26	CC(C)Oc1ccc(C(=O)N(Cc2ccc(N(C)C)cc2)Cc2ccco2)cc1	14.7%	5.4%	13µM*
27	CCCCOc1ccc(C(=O)N(Cc2ccco2)Cc2ccco2)cc1	2.3%	14.3%	20.6µM*
28	Cc1ccccc1C(=O)N(Cc1ccc(N(C)C)cc1)Cc1ccco1	11.0%	3.2%	18.4µM*
29	CCCCOc1ccc(C(=O)N(Cc2ccc(N(C)C)cc2)Cc2ccco2)cc1	12.3%	6.4%	13µM*
30	COc1ccc(NC(=O)c2ccc3c(c2)C(=O)N(Cc2ccncc2)C3=O)cc1S(N)(=O)=O	-9.4%	x	-13.3%
31	O=C(COc1coc(CN2CCN(c3ccccc3F)CC2)cc1=O)Nc1ccccc1	-5.1%	x	-29.9%
32	O=C(O)C[C@H]1c2ccc(C(F)(F)F)cc2S(=O)(=O)N1Cc1ccccc1	x	x	-15.3%

nr	TDP1 cell CPT	uPA generation
25	u	x
26	u	x
27	u	x
28	u	x
29	u	x
30	-0.2%	1.5%
31	-19.6%	3.8%
32	0.9%	9.9%

The list goes on:
nr	SMILES	TDP1 block	miR-21 FLuc	DT40 TDP1 no CPT
33	CC(C)Oc1ccc(C(=O)NC(=S)N2CCOCC2)cc1	5.6%	-51.8%	u
34	Cc1ccc(C(=O)N(Cc2ccc(N(C)C)cc2)Cc2ccco2)cc1	14.7%	-2.7%	20.6µM*
35	CN(C)c1ccc(CN(Cc2ccco2)C(=O)c2ccc(F)cc2)cc1	11.0%	-1.1%	u
36	C=C(C)c1ccc(C(C)(C)NC(=O)NCc2ccco2)cc1	6.3%	1.0%	-18.6%
37	C=C(C)c1ccc(C(C)(C)NC(=O)N(Cc2ccccc2)Cc2ccco2)cc1	2.1%	1.7%	16.4µM*
38	CCSc1ncc(Cl)c(C(=O)N(Cc2ccccc2)c2ccc(OC)cc2)n1	0.0%	u	5.8µM*
39	Cc1cc(C)c2c(CC(=O)N(Cc3ccc(N(C)C)cc3)Cc3ccco3)coc2c1	11.0%	10.1%	20.6µM*

nr	TDP1 cell CPT	uPA generation
33	u	0.2%
34	u	x
35	u	x
36	-9.5%	8.6%
37	18.4µM*	2.9%
38	u	x
39	14.6µM*	x

Full records, quoted from the list. Order of values: TDP1 block, miR-21 FLuc, DT40 TDP1 no CPT, TDP1 cell CPT, uPA generation
Entry for Cc1ccc(C(=O)N(Cc2ccc(N(C)C)cc2)Cc2ccco2)cc1 → 14.7%, -2.7%, 20.6µM*, u, x
Entry for CCSc1ncc(Cl)c(C(=O)N(Cc2ccccc2)c2ccc(OC)cc2)n1 → 0.0%, u, 5.8µM*, u, x
Entry for CC(C)Oc1ccc(C(=O)NC(=S)N2CCOCC2)cc1 → 5.6%, -51.8%, u, u, 0.2%
Entry for C=C(C)c1ccc(C(C)(C)NC(=O)N(Cc2ccccc2)Cc2ccco2)cc1 → 2.1%, 1.7%, 16.4µM*, 18.4µM*, 2.9%
